Like-named read-outs stand apart in the source and are kept apart here.
Columns and labels:
[1] = system: mouse vas deferens (MVD) preparations; test: Agonist potency in mouse vas deferens (MVD)
[2] = Mouse abdominal stretch (writhing) antinociception assay, icv and iv; details: for icv - ED50 / iv - ED50: writhing, mice, converted from nmol/mouse with 25 g/mouse
[3] = system: guinea pig longitudinal ileal muscle (GPI) preparations; test: Agonist potency in electrically stimulated guinea pig ileal longitudinal muscle (GPI); details: for IC50: GPI, arithmetic means of at least three experiments
[4] = molecular target: κ receptor (Mus musculus, UniProt P33534); test: Mouse abdominal stretch assay with κ antagonist norBNI; details: for effect of nor-BNI on ED50, in words: κ-selective antagonist; for receptor selectivity of antinociceptive effect, in words: mouse abdominal stretch assay
[5] = molecular target: δ receptor (Mus musculus, UniProt P32300); test: Mouse abdominal stretch assay with δ antagonist naltrindole (NTI); details: for ED50 ratio, NTI (δ): agonist sc, NTI 20.37 μmol/kg sc, 24 h peak time, ED50 in antagonist-treated / control ED50, 95% confidence levels; for effect of NTI on ED50, in words: δ antagonist
[6] = molecular target: μ receptor (Mus musculus, UniProt P42866); test: Mouse abdominal stretch assay with μ antagonist β-funaltrexamine (β-FNA); details: for ED50 ratio, β-FNA (μ): agonist sc, β-FNA 44.44 μmol/kg sc, 30 min peak time, ED50 in antagonist-treated / control ED50, 95% confidence levels; for effect of β-FNA on ED50, in words: μ antagonist
[7] = molecular target: κ opioid receptor (Cavia porcellus, UniProt P41144); test: Competition binding to κ receptors, [3H]U69,593, guinea pig brain membranes; details: for selectivity δ2/κ: Ki ratio δ2/κ; for selectivity μ/κ: Ki ratio μ/κ; for binding to the κ opioid receptor, in words / Ki: guinea-pig brain; for Ki: read-out: Ki (nM) κ, 1 nM [3H]U69,593, geometric means of three experiments
[8] = cited from earlier work
[9] = read-out: IC50 (nM) ± SEM, MVD (Agonist Potencies of Parent Compounds), arithmetic means of at least three experiments
[10] = read-out: IC50 (nM) ± SEM, GPI (Agonist Potencies of Parent Compounds)
[11] = read-out: GPI - IC50 (nM) (Amino-Acid Conjugates)

CN(C(=O)Cc1ccc(Cl)c(Cl)c1)[C@H](CN1CCCC1)c1ccccc1
IC50 [1, 9]: 2.5 nM
selectivity (iv/icv) [2]: 1.4
icv - ED50 [2]: 12 nmol/kg
iv - ED50 [2]: 17 nmol/kg
IC50 [3, 10]: 0.27 nM

CN(C(=O)Cc1ccc(Cl)c(Cl)c1)[C@H](CN1CCCC1)c1cccc([N+](=O)[O-])c1
IC50 [1, 9]: 2.49 nM
IC50 [3, 10]: 16.2 nM

CN(C(=O)Cc1ccc(Cl)c(Cl)c1)[C@H](CN1CCCC1)c1cccc(NC(=O)[C@H](N)CC(=O)O)c1 [listing 1 of 2 here]
IC50 ([1]; read-out: MVD - IC50 (nM) (Amino-Acid Conjugates), arithmetic means of at least three experiments): 4.06 nM
effect of nor-BNI on ED50, in words [4]: not affected significantly
ED50 ratio, NTI (δ) [5]: 0.55
effect of NTI on ED50, in words [5]: not affected significantly
selectivity (iv/icv) [2]: 43.6
icv - ED50 [2]: 46 nmol/kg
iv - ED50 [2]: 2015 nmol/kg
ED50 ratio, β-FNA (μ) [6]: 1.75
effect of β-FNA on ED50, in words [6]: not affected significantly
selectivity δ2/κ [7]: 590
selectivity μ/κ [7]: 266
binding to the κ opioid receptor, in words [7]: retained high affinity and selectivity binding to the κ opioid receptor

CN(C(=O)Cc1ccc(Cl)c(Cl)c1)[C@H](CN1CCCC1)c1cccc(N)c1
IC50 [1, 9]: 0.12 nM
IC50 [3, 10]: 0.17 nM

CN(C(=O)Cc1ccc(Cl)c(Cl)c1)[C@@H](CN1CCCC1)c1ccccc1
IC50 [1, 9]: 87 nM

CN(C(=O)Cc1ccc(Cl)c(Cl)c1)C(CN1CCCC1)c1ccc([N+](=O)[O-])cc1 (racemic)
IC50 [3, 10]: 100 nM

CN(C(=O)Cc1ccc(Cl)c(Cl)c1)C(CN1CCCC1)c1ccc(N)cc1 (racemic)
IC50 [1, 9]: 4.45 nM
potency in GPI, in words ([3]; compared with 15 in the GPI): retained potencies comparable to the more potent enantiomer 15
IC50 [3, 10]: 0.65 nM

CN(C(=O)Cc1ccc(Cl)c(Cl)c1)[C@H](CN1CCCC1)c1cccc(NC(=O)[C@H](N)CC(=O)O)c1 [listing 2 of 2 here]
Ki [7]: 0.97 nM

CN(C(=O)Cc1ccc(Cl)c(Cl)c1)[C@H](CN1CCCC1)c1cccc(NC(=O)C[C@H](N)C(=O)O)c1
receptor selectivity of antinociceptive effect, in words [4]: κ-selective
effect of nor-BNI on ED50, in words [4]: significantly increased the ED50 values
ED50 ratio, NTI (δ) [5]: 1.01
effect of NTI on ED50, in words [5]: ineffective
ED50 ratio, β-FNA (μ) [6]: 2.56
effect of β-FNA on ED50, in words [6]: ineffective
IC50 [3, 11]: 0.55 nM

CN(C(=O)Cc1ccc(Cl)c(Cl)c1)[C@H](CN1CCCC1)c1cccc(NC(=O)[C@@H](N)CC(=O)O)c1
receptor selectivity of antinociceptive effect, in words [4]: κ-selective
effect of nor-BNI on ED50, in words [4]: significantly increased the ED50 values
ED50 ratio, NTI (δ) [5]: 0.92
effect of NTI on ED50, in words [5]: ineffective
selectivity (iv/icv) [2]: 15.7
icv - ED50 [2]: 6.8 nmol/kg
iv - ED50 [2]: 105 nmol/kg
ED50 ratio, β-FNA (μ) [6]: 2.86
effect of β-FNA on ED50, in words [6]: ineffective
selectivity δ2/κ [7]: 5290
selectivity μ/κ [7]: 2270
binding to the κ opioid receptor, in words [7]: retained high affinity and selectivity binding to the κ opioid receptor
Ki [7]: 0.2 nM
IC50 [3, 11]: 0.84 nM

CN(C(=O)Cc1ccc(Cl)c(Cl)c1)[C@H](CN1CCCC1)c1cccc(NC(=O)CC[C@@H](N)C(=O)O)c1
IC50 [3, 11]: 0.39 nM

C=CC[N+]1(C)CC[C@]23c4c5ccc(O)c4O[C@H]2C(=O)CC[C@@]3(O)[C@H]1C5 (some centres unmarked)
toxic effects at high dosages [8]: produces tumors and convulsions
